The term Ki denotes the equilibrium dissociation constant of an inhibitor or competing ligand from its target.

The chains behind the UniProt entries cited, without tags or fusion partners.
UniProt P31652, whole entry: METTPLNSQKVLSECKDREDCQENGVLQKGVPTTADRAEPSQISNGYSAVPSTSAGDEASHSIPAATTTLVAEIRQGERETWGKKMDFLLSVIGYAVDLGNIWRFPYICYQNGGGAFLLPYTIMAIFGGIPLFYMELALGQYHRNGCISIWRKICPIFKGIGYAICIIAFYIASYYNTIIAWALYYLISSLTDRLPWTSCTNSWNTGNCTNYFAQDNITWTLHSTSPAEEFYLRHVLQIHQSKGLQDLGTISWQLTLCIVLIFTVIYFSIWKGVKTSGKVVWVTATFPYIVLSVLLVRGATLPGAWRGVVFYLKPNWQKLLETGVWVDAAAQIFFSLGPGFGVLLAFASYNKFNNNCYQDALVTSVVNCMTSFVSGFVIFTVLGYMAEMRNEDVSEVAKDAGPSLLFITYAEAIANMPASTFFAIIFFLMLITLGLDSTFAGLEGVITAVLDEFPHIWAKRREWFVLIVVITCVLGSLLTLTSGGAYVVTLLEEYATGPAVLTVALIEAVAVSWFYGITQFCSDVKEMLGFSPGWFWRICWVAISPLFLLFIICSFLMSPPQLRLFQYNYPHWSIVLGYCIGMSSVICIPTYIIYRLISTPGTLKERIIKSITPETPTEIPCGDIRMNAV

The source of these data is patent US6288125A, “Treatment of hiatial hernia” (Knoll Pharmaceuticals Company, priority 2000, dated 2001).

The target in the assay is [^3 H]5-HT reuptake (Rattus norvegicus, UniProt P31652). As to conditions: read-out: Ki (nM) [^3 H]5-HT; in vitro monoamine reuptake inhibition; rat brain tissue; means of >3 separate determinations.

In the case of `CNC(CC(C)C)C1(c2ccc(Cl)cc2)CCC1` (centres unmarked) [Example 1, N-{1-[1-(4-chlorophenyl)cyclobutyl]-3-methylbutyl}-N-methylamine], the Ki was 18 nM.

Turning to `CC(C)CC(N)C1(c2ccc(Cl)cc2)CCC1` (centres unmarked) [Example 2, 1-[1-(4-chlorophenyl)cyclobutyl]-3-methylbutylamine], the inhibitory constant (Ki) came to 26 nM.
